Laboratory results as given in publication PMC8556396 (2021).
Where “and” joins values, the source holds several entries; their conditions need not be identical. Identical values can stand only once.

Test system: RSV A2
Test: Immunofluorescence staining and microscopy of RSV F and N;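 also: fluorescence normalized to total nuclear count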
[1] = Fig 5D, FTI-276 5 uM, perillyl alcohol 5 mM

## O=c1cc(CN2CCOCC2)occ1OCCCCCSc1ccnc2cc(C(F)(F)F)ccc12 [EHT 1864]
Fig 7C, EHT 1864 40 uM
  RSV N intensity (a.u.): 1.109 a.u.

## CSCC[C@H](NC(=O)c1ccc(NC[C@@H](N)CS)cc1-c1ccccc1)C(=O)O.O=C(O)C(F)(F)F [FTI-276, FTI-276 trifluoroacetate salt]
[1]
  RSV F intensity (a.u.): 4.494 a.u.
Fig 5E, FTI-276 0.5 uM, perillyl alcohol 0.5 mM
  RSV N intensity (a.u.): 5.737 a.u.

## C=C(C)[C@@H]1CC=C(CO)CC1 [Perillyl alcohol, perillyl alcohol]
Fig 5D, FTI-276 0.5 uM, perillyl alcohol 0.5 mM
  RSV F intensity (a.u.): 5.739 a.u.
Fig 5D, FTI-276 1 uM, perillyl alcohol 1 mM
  RSV F intensity (a.u.): 2.761 a.u. and 2.994 a.u.
[1]
  RSV F intensity (a.u.): 1.113 a.u.

## CCC(C)(C)C(=O)O[C@H]1C[C@@H](C)C=C2C=C[C@H](C)[C@H](CC[C@@H]3C[C@@H](O)CC(=O)O3)[C@H]21 [Simvastatin, simvastatin]
Fig 5B, statin alone: atorvastatin 3.5 uM, simvastatin 1.5 uM
  RSV F intensity (a.u.): 0.4508 a.u. and 0.3057 a.u. and 0.5713 a.u. and 0.59 a.u.
Fig 5C, statin alone: atorvastatin 3.5 uM, simvastatin 1.5 uM
  RSV N intensity (a.u.): 0.3368 a.u. and 0.3462 a.u. and 0.2491 a.u. and 0.4368 a.u.
Fig 7B, atorvastatin 3.5 uM, simvastatin 1.5 uM, EHT 1864 20 uM, CN04 1 uM, CN04 1 uM + Ato 3.5 uM
  RSV F intensity (a.u.): 0.2881 a.u. and 0.3736 a.u. and 0.3944 a.u. and 0.4969 a.u.
